Key:
[1] = molecular target: HLA-DQ2.5 on IHW09023 cells loaded with 33mer gliadin peptide (human; wheat); assay: cell-based or functional assay
HLA-DR on Ba/F3 cells = molecular target: T1, HLA-DR on Ba/F3 cells (human, UniProt P01903 26-216; P79483 30-227, limits assumed); assay: FACS, Ba/F3 cells; raw MFI
T1 construct: whole, on cells; also called Ba/F3-HLA-DR

HLA-DQ2.5 on Ba/F3 cells = molecular target: T2, HLA-DQ2.5 on Ba/F3 cells (human, UniProt P01909 24-216, limits assumed); assay: FACS, Ba/F3 cells; %MFI: IC17dK 0, DQN0139bb 100
T2 construct: whole, on cells; MHC class II without fused peptide; also called Ba/F3-HLA-DQ2.5

HLA-DQ2.2 on Ba/F3 cells = molecular target: T3, HLA-DQ2.2 on Ba/F3 cells (human, UniProt P01909 24-216, limits assumed); assay: FACS, Ba/F3 cells; %MFI: IC17dK 0, DQN0139bb 100
T3 construct: whole, on cells; also called Ba/F3-HLA-DQ2.2

HLA-DQ7.5 on Ba/F3 cells = molecular target: T4, HLA-DQ7.5 on Ba/F3 cells (human, UniProt P01909 24-216; P01920 33-230, limits assumed); assay: FACS, Ba/F3 cells; %MFI: IC17dK 0, DQN0139bb 100
T4 construct: whole, on cells; also called Ba/F3-HLA-DQ7.5

HLA-DQ8 on Ba/F3 cells = molecular target: T5, HLA-DQ8 on Ba/F3 cells (human, UniProt P01909 24-216; P01920 33-230, limits assumed); assay: FACS, Ba/F3 cells; %MFI: IC17dK 0, DQN0139bb 100
T5 construct: whole, on cells; also called Ba/F3-HLA-DQ8

HLA-DQ7.3 on Ba/F3 cells = molecular target: T6, HLA-DQ7.3 on Ba/F3 cells (human, UniProt P01909 24-216; P01920 33-230, limits assumed); assay: FACS, Ba/F3 cells; %MFI: IC17dK 0, DQN0139bb 100
T6 construct: whole, on cells; also called Ba/F3-HLA-DQ7.3

[2] = molecular target: HLA-DQ2.5 on IHW09023 cells loaded with omega1/2 gliadin peptide (human; wheat); assay: cell-based or functional assay

B1: DQN0344H0976/L0591//DQN0385H1270/L0681-F6 (bispecific antibody)
heavy 1: QVQLVESGGGVVQPGGSLRLSCAASGFTFSSAYWMVWVRQAPGQGLEWMGAVYGGSDTTYYAKWTEGRFTISRDTSKNTLYLQMNSLRAEDTAVYYCAREPLNYYYYGELNLWGQGTLVTVSSASTKGPSVFPLAPSSKSTSGGTAALGCLVKDYFPEPVTVSWNSGALTSGVHTFPAVLKSSGLYSLSSVVTVPSSSLGTQTYICNVNHKPSNTKVDKRVEPKSCDKTHTCPPCPAPELRRGPSVFLFPPKPKDTLMISRTPEVTCVVVDVSHEDPEVKFNWYVDGVEVHNAKTKPREEQYNSTYRVVSVLTVLHQDWLNGKEYKCKVSNKALPAPIEKTISKAKGQPREPQVYTLPPSREEMTKNQVSLTCLVKGFYPSDIAVEWESNGQPENNYKTTPPYLDSDGSFFLYSKLTVDKSRWQEGNVFSCSVLHEALHAHYTREELSLSP
light 1: DIQMTQSPSSLSASVGDRVTITCQATEEIYSGLAWYQQKPGKAPKLLIYYVSTLYEGIPARFSGSGSGTDFTLTISSLEPEDFAVYYCQTYEDVSAVTFGQGTKVEIKRTVAAPSVFIFPPSDEQLKSGTAEVVCLLNNFYPREAKVQWKVDNALQSGNSEESVTEQDSKDSTYSLSSTLTLSKADYEKHKVYACEVTHQGLSSPVTKSFNRGEC
heavy 2: QVQLVESGGGVVQPGRSLRLSCAASGFTFSEWYFMSWVRQAPGKGLEWVASIDTGSGSIDYAEWVEGRFTISRDNSKNTLYLQMNSLRAEDTAVYYCARDIGIDYNFWGPGTLVTVSSASTKGPSVFPLAPSSKSTSGGTAALGCLVEDYFPEPVTVSWNSGALTSGVHTFPAVLESSGLYSLSSVVTVPSSSLGTKTYICNVNHKPSNTKVDKRVEPKSCDKTHTCPPCPAPELRRGPSVFLFPPKPKDTLMISRTPEVTCVVVDVSHEDPEVKFNWYVDGVEVHNAKTKPREEQYNSTYRVVSVLTVLHQDWLNGKEYKCKVSNKALPAPIEKTISKAKGQPREPQVYTLPPSRKEMTKNQVSLTCLVKGFYPSDIAVEWESNGQPENNYKTTPPYLDSDGSFFLYSKLTVDKSRWQQGNVFSCSVLHEALHAHYTRKELSLSP
light 2: DIQMTQSPSSLSASVGDRVTITCQTTQSISSYLNWYQQKPGQPPKLLIYYASTKAEGIPARFSGSGLGTDFTLTISSLEPEDFAVYYCHYGISKVSFGQGTKVEIKRTVAAPSVFIFPPSDEQLKSGTAKVVCLLNNFYPREAKVQWKVDNALQSGNSKESVTEQDSKDSTYSLSSTLTLSKADYEKHKVYACEVTHQGLSSPVTKSFNRGEC
B1 was tested, and the “IC50 (ng/mL), α1a gliadin TCR, 250 nM 33mer gliadin” value [1] was 0.58 ng/mL.

B2: DQN0344H1013/L0620//DQN0385H1353/L0681-F6 (bispecific antibody)
heavy 1: QVQLVESGGGVVQPGRSLRLSCAASGFTFSSAYWMVWVRQAPGQGLEWMGAVYGGSDTTYYAKWTEGRFTISRDTSKNTLYLQMNSLRAEDTAVYYCAREPLNYYYYGELNVWGQGTLVTVSSASTKGPSVFPLAPSSKSTSGGTAALGCLVKDYFPEPVTVSWNSGALTSGVHTFPAVLKSSGLYSLSSVVTVPSSSLGTQTYICNVNHKPSNTKVDKRVEPKSCDKTHTCPPCPAPELRRGPSVFLFPPKPKDTLMISRTPEVTCVVVDVSHEDPEVKFNWYVDGVEVHNAKTKPREEQYNSTYRVVSVLTVLHQDWLNGKEYKCKVSNKALPAPIEKTISKAKGQPREPQVYTLPPSREEMTKNQVSLTCLVKGFYPSDIAVEWESNGQPENNYKTTPPYLDSDGSFFLYSKLTVDKSRWQEGNVFSCSVLHEALHAHYTREELSLSP
light 1: DIQMTQSPSSLSASVGDRVTITCQATENIYSGLAWYQQKPGKAPKLLIYYVSTLAYGIPARFSGSGSGTDFTLTISSLEPEDFAVYYCQTYEDVSAVTFGQGTKVEIKRTVAAPSVFIFPPSDEQLKSGTAEVVCLLNNFYPREAKVQWKVDNALQSGNSEESVTEQDSKDSTYSLSSTLTLSKADYEKHKVYACEVTHQGLSSPVTKSFNRGEC
heavy 2: QVQLVESGGGVVQPGRSLRLSCAASGFTFAEWYFMSWVRQAPGKGLEWVASIDTGSGSIDYAEWVEGRFTISRDNSKNTLYLQMNSLRAEDTAVYYCARDIGIDYNFWGPGTLVTVSSASTKGPSVFPLAPSSKSTSGGTAALGCLVEDYFPEPVTVSWNSGALTSGVHTFPAVLESSGLYSLSSVVTVPSSSLGTKTYICNVNHKPSNTKVDKRVEPKSCDKTHTCPPCPAPELRRGPSVFLFPPKPKDTLMISRTPEVTCVVVDVSHEDPEVKFNWYVDGVEVHNAKTKPREEQYNSTYRVVSVLTVLHQDWLNGKEYKCKVSNKALPAPIEKTISKAKGQPREPQVYTLPPSRKEMTKNQVSLTCLVKGFYPSDIAVEWESNGQPENNYKTTPPYLDSDGSFFLYSKLTVDKSRWQQGNVFSCSVLHEALHAHYTRKELSLSP
light 2: DIQMTQSPSSLSASVGDRVTITCQTTQSISSYLNWYQQKPGQPPKLLIYYASTKAEGIPARFSGSGLGTDFTLTISSLEPEDFAVYYCHYGISKVSFGQGTKVEIKRTVAAPSVFIFPPSDEQLKSGTAKVVCLLNNFYPREAKVQWKVDNALQSGNSKESVTEQDSKDSTYSLSSTLTLSKADYEKHKVYACEVTHQGLSSPVTKSFNRGEC
B2: no binding (tested: 0.05 micro g/mL) (HLA-DR on Ba/F3 cells); no binding (tested: 0.05 micro g/mL) (HLA-DQ2.5 on Ba/F3 cells); no binding (tested: 0.05 micro g/mL) (HLA-DQ2.2 on Ba/F3 cells). B2: no binding (tested: 0.05 micro g/mL) (HLA-DQ7.5 on Ba/F3 cells); no binding (tested: 0.05 micro g/mL) (HLA-DQ8 on Ba/F3 cells); no binding (tested: 0.05 micro g/mL) (HLA-DQ7.3 on Ba/F3 cells).

B3: DQN0344H1013/L0620//DQN0385H1521/L0605-F6 (bispecific antibody)
heavy 1: QVQLVESGGGVVQPGRSLRLSCAASGFTFSSAYWMVWVRQAPGQGLEWMGAVYGGSDTTYYAKWTEGRFTISRDTSKNTLYLQMNSLRAEDTAVYYCAREPLNYYYYGELNVWGQGTLVTVSSASTKGPSVFPLAPSSKSTSGGTAALGCLVKDYFPEPVTVSWNSGALTSGVHTFPAVLKSSGLYSLSSVVTVPSSSLGTQTYICNVNHKPSNTKVDKRVEPKSCDKTHTCPPCPAPELRRGPSVFLFPPKPKDTLMISRTPEVTCVVVDVSHEDPEVKFNWYVDGVEVHNAKTKPREEQYNSTYRVVSVLTVLHQDWLNGKEYKCKVSNKALPAPIEKTISKAKGQPREPQVYTLPPSREEMTKNQVSLTCLVKGFYPSDIAVEWESNGQPENNYKTTPPYLDSDGSFFLYSKLTVDKSRWQEGNVFSCSVLHEALHAHYTREELSLSP
light 1: DIQMTQSPSSLSASVGDRVTITCQATENIYSGLAWYQQKPGKAPKLLIYYVSTLAYGIPARFSGSGSGTDFTLTISSLEPEDFAVYYCQTYEDVSAVTFGQGTKVEIKRTVAAPSVFIFPPSDEQLKSGTAEVVCLLNNFYPREAKVQWKVDNALQSGNSEESVTEQDSKDSTYSLSSTLTLSKADYEKHKVYACEVTHQGLSSPVTKSFNRGEC
heavy 2: QVQLVESGGGVVQPGRSLRLSCAASGFTFESWYFMSWVRQAPGKGLEWVASIDTGSGSIDYAEWVEGRFTISRDNSKNTLYLQMNSLRAEDTAVYYCARDIGIDYNFWGPGTLVTVSSASTKGPSVFPLAPSSKSTSGGTAALGCLVEDYFPEPVTVSWNSGALTSGVHTFPAVLESSGLYSLSSVVTVPSSSLGTKTYICNVNHKPSNTKVDKRVEPKSCDKTHTCPPCPAPELRRGPSVFLFPPKPKDTLMISRTPEVTCVVVDVSHEDPEVKFNWYVDGVEVHNAKTKPREEQYNSTYRVVSVLTVLHQDWLNGKEYKCKVSNKALPAPIEKTISKAKGQPREPQVYTLPPSRKEMTKNQVSLTCLVKGFYPSDIAVEWESNGQPENNYKTTPPYLDSDGSFFLYSKLTVDKSRWQQGNVFSCSVLHEALHAHYTRKELSLSP
light 2: DIQMTQSPSSLSASVGDRVTITCQTTQSISSYLNWYQQKPGQPPKLLIYYASTKAEGIPARFSGSGSGTDFTLTISSLEPEDFAVYYCHYGISKVSFGQGTKVEIKRTVAAPSVFIFPPSDEQLKSGTAKVVCLLNNFYPREAKVQWKVDNALQSGNSKESVTEQDSKDSTYSLSSTLTLSKADYEKHKVYACEVTHQGLSSPVTKSFNRGEC
For B3, the “IC50 (ng/mL), ω2 gliadin TCR, 250 nM ω1/2 gliadin” value [2] was 0.19 ng/mL.

Source: patent publication US20240400693A1 (Chugai, published 2024)
